{"source": "patent US20080166411A1", "about": "“Injectable Depot Formulations And Methods For Providing Sustained Release Of Poorly Soluble Drugs Comprising Nanoparticles” (Pfizer Inc, priority 2006, published 2008)", "origin": "cited, not measured here", "details": "orally administered"}
{"substance": "insulin", "values": [{"measurement": "fraction of the total dose bioavailable", "result": "< 10", "unit": "%"}]}
